## Measured affinities in a library of Ab-95 light chain variants

Data: MIT Lincoln Laboratory AlphaSeq set, Engelhart et al. 2022, doi:10.1038/s41597-022-01779-4, as distributed in FLAb.

Binding partner: SARS-CoV-2 spike HR2 peptide, sequence PDVDLGDISGINAS.

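The parent was found by panning a naive human phage display library on the peptide. Variants in AAYL52 differ from the parent at up to three CDR positions; double and triple changes were sampled at random. The scFvs were displayed on barcoded MATa yeast, the peptide on MATalpha yeast. Pairs that bind mate more often; barcode pairs of the diploids are counted by sequencing. The ratio of observed to expected reads was calibrated, replicate by replicate, on BCL2-family standards whose Kd was known from biolayer interferometry. Each pool was mated in three replicate cultures.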

Ab-95 is the parent antibody, in scFv form: VH, then a 15-residue (Gly4Ser)3 linker, then VL. The heavy chain is unchanged in all variants.
VH: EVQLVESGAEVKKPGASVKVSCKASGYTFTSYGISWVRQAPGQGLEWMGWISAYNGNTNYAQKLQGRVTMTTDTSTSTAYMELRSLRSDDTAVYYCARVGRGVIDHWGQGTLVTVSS
VL: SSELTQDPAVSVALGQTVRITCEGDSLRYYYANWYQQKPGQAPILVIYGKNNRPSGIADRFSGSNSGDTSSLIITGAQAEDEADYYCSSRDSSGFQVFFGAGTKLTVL

The whole VL of each variant is written out.
Scale: log10 of Kd in nM, estimated from mating counts; low values are strong binders.
Replicates are averaged; those with no signal do not enter the mean.
An entry "n.d." has no value in the source: the pair was not observed among the diploids in that replicate. This suggests poor binding but is not conclusive.
Order: sorted from the lowest average up, undetected variants last.
Three control strains display no target. For library AAYL52, 28% of the pairings with them gave a signal, with a median of 3.91 and one signal in twenty below 2.90, so weak values seen in few replicates may be background.

replicates, log10 nM	log10 Kd (nM), mean	VL
1.83 1.44 1.03	1.43	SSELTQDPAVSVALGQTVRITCEGDSLRYKYANWYQQKPGQAPILVIYGKNNRPSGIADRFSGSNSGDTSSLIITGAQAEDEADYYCSSRDSSGPQVFFGAGTKLTVL
2.05 2.48 1.81	2.11	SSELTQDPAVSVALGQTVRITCEGDSLMYYYANWYQQKPGQAPILVIYGKNDRPSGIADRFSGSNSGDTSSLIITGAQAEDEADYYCSSRDSSGFQEFFGAGTKLTVL
n.d. 2.57 2.16	2.36	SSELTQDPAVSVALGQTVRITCEGDSLRYYQANWYQQKPGQAPILVIYGKNNRISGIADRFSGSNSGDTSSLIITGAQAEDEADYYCSSRDSSGFQSFFGAGTKLTVL
2.71 2.59 n.d.	2.65	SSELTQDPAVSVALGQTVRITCEGDSLRYYYANWYQQKPGQAPILVIYGKNNRPSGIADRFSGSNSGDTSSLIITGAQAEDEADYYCSRRDQSGFQVFFGAGTKLTVL
2.76 2.96 3.27	3.00	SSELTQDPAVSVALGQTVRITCEGDSERYRYANWYQQKPGQAPILVIYGKNNRPSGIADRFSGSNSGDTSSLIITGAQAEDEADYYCSSRDSKGFQVFFGAGTKLTVL
3.04 3.19 2.82	3.02	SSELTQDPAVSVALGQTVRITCEYDSLRYYYPNWYQQKPGQAPILVIYGKNNRPSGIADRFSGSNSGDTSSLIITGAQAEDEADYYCSSRDSSGFKVFFGAGTKLTVL
2.27 2.84 3.99	3.03	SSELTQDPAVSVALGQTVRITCEGDSLGFFYANWYQQKPGQAPILVIYGKNNRPSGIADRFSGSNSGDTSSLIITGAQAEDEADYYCSSRDSSGFQVFFGAGTKLTVL
n.d. 3.62 2.65	3.13	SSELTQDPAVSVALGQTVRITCETDSLRYYYANWYQQKPGQAPILVIYGHNERPSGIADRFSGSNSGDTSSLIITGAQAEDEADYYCSSRDSSGFQVFFGAGTKLTVL
3.50 3.13 4.16	3.60	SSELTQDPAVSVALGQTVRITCEGDNLRYYYANWYQQKPGQAPILVIYGKNNRPSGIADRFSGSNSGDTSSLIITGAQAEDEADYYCSSFDSSGFQDFFGAGTKLTVL
3.67 n.d. n.d.	3.67	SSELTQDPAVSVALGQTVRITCEKDSLRYYYANWYQQKPGQAPILVIYGKNNRPSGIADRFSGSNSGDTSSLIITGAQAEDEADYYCSQRDSSGFQVFFGAGTKLTVL
3.76 n.d. n.d.	3.76	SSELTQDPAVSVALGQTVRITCEGDSLRYYYANWYQQKPGQAPILVIYGINNRPSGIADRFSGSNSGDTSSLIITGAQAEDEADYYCSSRDSVGFQVQFGAGTKLTVL
n.d. 3.87 n.d.	3.87	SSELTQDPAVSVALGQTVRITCEGISLRYYYASWYQQKPGQAPILVIYNKNNRPSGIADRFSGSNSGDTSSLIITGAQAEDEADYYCSSRDSSGFQVFFGAGTKLTVL
3.58 4.19 3.95	3.91	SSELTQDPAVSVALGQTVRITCLGDSLRYYYANWYQQKPGQAPILVIYGHNNRPSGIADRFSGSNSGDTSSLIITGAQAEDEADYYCSSRDSSGFQKFFGAGTKLTVL
n.d. 4.04 n.d.	4.04	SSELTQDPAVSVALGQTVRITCEGDDLRYYYANWYQQKPGQAPILVIYGYNNRPSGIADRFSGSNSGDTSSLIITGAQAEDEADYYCSSRDSSGFQVPFGAGTKLTVL
n.d. n.d. 4.04	4.04	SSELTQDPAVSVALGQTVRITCEGDSTRYYYANWYQQKPGQAPILVIYGKNNRPSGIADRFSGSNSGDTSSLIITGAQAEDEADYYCVSRDSSGFQVFFGAGTKLTVL
4.00 n.d. 4.22	4.11	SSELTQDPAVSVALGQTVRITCEGDSLRWYYANWYQQKPGQAPILVIYGKNNRPSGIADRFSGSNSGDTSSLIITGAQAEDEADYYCSSRDSSGFNHFFGAGTKLTVL
3.50 4.78 n.d.	4.14	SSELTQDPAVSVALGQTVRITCEGDSHRYYYANWYQQKPGQAPILVIYGKNNRPSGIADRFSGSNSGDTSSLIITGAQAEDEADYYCSSRDLSVFQVFFGAGTKLTVL
3.83 4.49 n.d.	4.16	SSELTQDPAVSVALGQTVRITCEGDSLRYYYANWYQQKPGQAPILVIYGKNNPPSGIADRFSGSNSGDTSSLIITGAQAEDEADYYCSSRESSGFQVFFGAGTKLTVL
n.d. n.d. 4.22	4.22	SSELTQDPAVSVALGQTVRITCEGDSLRYYYANWYQQKPGQAPILVIYGKPNRPSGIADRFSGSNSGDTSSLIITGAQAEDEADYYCSSRDVSWFQVFFGAGTKLTVL
n.d. 3.77 4.79	4.28	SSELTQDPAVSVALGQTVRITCPGDSLRYYYANWYQQKPGQAPILVIYGKNNRDSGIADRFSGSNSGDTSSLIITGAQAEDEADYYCSSRDSSGFQVQFGAGTKLTVL
n.d. 4.36 n.d.	4.36	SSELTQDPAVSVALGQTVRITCERDSLRYYYANWYQQKPGQAPILVIYGCNNKPSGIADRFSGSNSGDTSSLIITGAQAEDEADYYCSSRDSSGFQVFFGAGTKLTVL
n.d. n.d. n.d.	n.d.	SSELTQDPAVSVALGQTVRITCEGDSLRYYYAQWYQQKPGQAPILVIYGKNVRPSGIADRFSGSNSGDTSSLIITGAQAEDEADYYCSSRDSSGCQVFFGAGTKLTVL
n.d. n.d. n.d.	n.d.	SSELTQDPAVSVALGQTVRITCEGDSDRYYYANWYQQKPGQAPILVIYGKNNRCSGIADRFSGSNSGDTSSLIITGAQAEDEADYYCSSRDSSGWQVFFGAGTKLTVL

In this assay the parent's reference entry averaged 2.31; its copy inside this library read 2.25.